Results as given in article PMC2577155 (The Journal of neuroscience : the official journal of the …, 2008).

System: NMDA receptor currents in CA1 hippocampal pyramidal cells

Cc1ccccc1CN1CCC(N2CCC(n3c(=O)[nH]c4ccccc43)CC2)CC1 [TBPB]
peak amplitude of NMDAR currents, % of baseline (3 μM, approximately 8 min after initial application, n = 6): 135.1±5.8%
peak potentiation of NMDA-evoked currents (TBPB 3 μM alone): 40.4±6.4%
peak potentiation of NMDA-evoked currents (TBPB 3 μM in combination with atropine 1 μM, n = 5): 5.1±5.8%

Read-outs that look alike come from different tables or passages of the source.
